Read-outs that look alike come from different tables or passages of the source.
Biological target: lysine gingipain (Kgp) (Porphyromonas gingivalis (Bacteroides gingivalis), UniProt P72194)
Test: biochemical
Assay type: biochemical
Method: The specific assay conditions were as follows. Buffer: pH=7.5, 100 mM Tris-HCl, 75 mM NaCl, 2.5 mM CaCl2), 10 mM cysteine, 1% DMSO after all additions. Protein: 0.1 nM Kgp, isolated from culture of Porphyromonas gingivalis, as described by Pike et al. (J. Biol. Chem. 1994, 269(1), 406), and Potempa and Nguyen (Current Protocols in Protein Science. 2007, 21.20.1-21.20.27). Fluorogenic substrate: 10 μM Z-His-Glu-Lys-MCA. Time=90 minutes. Temperature=37° C.
Further assays to measure the inhibitory activity of compounds of the present invention against Kgp and cathepsins B, H, K, L, and S were conducted as described in Example 66. The capacities of the compounds to inhibit the activity of cathepsins F, V, and Z were also measured.

[1] = Table 3, read-out: IC50 (nM) Kgp

## NCCCC[C@H](NC(=O)C1CCCC1)C(=O)COc1c(F)ccc(F)c1F (racemic) [1a - non-racemic]
[1]
  IC50: ≤ 0.05 nM

## NCCCC[C@@H](NC(=O)C1CCCC1)C(=O)COc1c(F)ccc(F)c1F [Compound 21]
IC50 (nM) Kgp, Table 4
  IC50: 0.09 nM

## NCCCCC(NC(=O)C1CCCC1)C(=O)COc1c(F)ccc(F)c1F (racemic) [Example 3, racemic N-(7-amino-2-oxo-1-(2,3,6-trifluorophenoxy)-heptan-3-yl)cyclopentanecarboxamide]
[1]
  IC50: ≤ 0.05 nM

Source: US10730826B2, “Ketone inhibitors of lysine gingipain” (CORTEXYME, INC., priority 2016, dated 2020)
